Test results published in ChEMBL document CHEMBL2417375 (Bioorg Med Chem Lett, 2013).

The chains behind the UniProt entries cited, without tags or fusion partners.
UniProt P42866, whole entry: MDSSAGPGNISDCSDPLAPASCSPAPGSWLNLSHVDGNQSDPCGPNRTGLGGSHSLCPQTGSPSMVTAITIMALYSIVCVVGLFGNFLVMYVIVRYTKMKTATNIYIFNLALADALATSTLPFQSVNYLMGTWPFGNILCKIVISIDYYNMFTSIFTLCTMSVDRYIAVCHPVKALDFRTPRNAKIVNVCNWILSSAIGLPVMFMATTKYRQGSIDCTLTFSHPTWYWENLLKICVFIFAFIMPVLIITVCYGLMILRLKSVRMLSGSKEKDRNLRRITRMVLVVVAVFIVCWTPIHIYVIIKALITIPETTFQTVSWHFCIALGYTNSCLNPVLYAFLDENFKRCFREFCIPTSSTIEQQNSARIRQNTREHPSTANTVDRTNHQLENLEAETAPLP

Columns and labels:
[1] = target: T1, Mu-type opioid receptor (Mus musculus, UniProt P42866); assay: Displacement of [3H]-naloxone from mouse mu opioid receptor expressed in CHO cells after 1.5 hrs; assay type: cell-based
[2] = target: T1, Mu-type opioid receptor; assay: Agonist activity at mouse mu opioid receptor expressed in CHO cells assessed as stimulation of [35S]-GTPgammaS binding after 1.5 hrs; assay type: functional, cell-based

| Structure (SMILES) | Ki [1] | EC50 [2] |
| --- | --- | --- |
| COc1c(C(=O)N[C@H]2CC[C@@]3(O)[C@H]4Cc5ccc(O)c6c5[C@@]3(CCN4CC3CC3)[C@H]2O6)nc(Cl)c2ccccc12 | 0.55 nM |  |
| O=C(N[C@H]1CC[C@@]2(O)[C@H]3Cc4ccc(O)c5c4[C@@]2(CCN3CC2CC2)[C@H]1O5)c1cc2ccccc2c(Cl)n1 | 1.26 nM | 2.62 nM |
